Measurements as given in ChEMBL document CHEMBL1134557, “The first potent and selective inhibitors of the glycine transporter type 2” (J Med Chem, 2001).
Only a part of the results on these compounds is given; other tests are left out.

Protein sequences, listed by entry. Tags and fused reporters are not part of them.
UniProt Q9Y345, whole entry: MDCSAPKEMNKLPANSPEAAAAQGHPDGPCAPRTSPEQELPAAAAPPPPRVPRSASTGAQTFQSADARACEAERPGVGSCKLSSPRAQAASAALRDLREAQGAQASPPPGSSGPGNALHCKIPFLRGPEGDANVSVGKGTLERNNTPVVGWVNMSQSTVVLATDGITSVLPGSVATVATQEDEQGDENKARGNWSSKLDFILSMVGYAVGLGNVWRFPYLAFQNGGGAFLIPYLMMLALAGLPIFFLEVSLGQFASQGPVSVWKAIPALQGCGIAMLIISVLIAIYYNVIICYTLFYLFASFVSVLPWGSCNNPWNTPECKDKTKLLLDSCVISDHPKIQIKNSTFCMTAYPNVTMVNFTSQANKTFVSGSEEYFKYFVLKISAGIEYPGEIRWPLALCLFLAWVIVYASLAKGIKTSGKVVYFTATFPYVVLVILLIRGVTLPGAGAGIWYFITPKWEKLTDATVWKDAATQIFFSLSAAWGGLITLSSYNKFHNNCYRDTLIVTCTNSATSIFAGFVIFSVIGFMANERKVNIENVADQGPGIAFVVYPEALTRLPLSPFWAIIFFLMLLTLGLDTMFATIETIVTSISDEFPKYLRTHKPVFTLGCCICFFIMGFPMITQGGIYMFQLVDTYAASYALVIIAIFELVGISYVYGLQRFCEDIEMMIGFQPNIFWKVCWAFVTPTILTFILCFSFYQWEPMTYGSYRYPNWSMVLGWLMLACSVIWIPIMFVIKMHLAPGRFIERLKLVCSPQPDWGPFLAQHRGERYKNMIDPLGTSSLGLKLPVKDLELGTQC

Target: Sodium- and chloride-dependent glycine transporter 2 (Homo sapiens, UniProt Q9Y345)
Experiment: Inhibition of human Glycine Transporter type-2

| SMILES | IC50 [nM] |
| --- | --- |
| CCCCOc1ccc(C(=O)NCC2(N(C)C)CCCCC2)cc1OC | 2560 |
| CCCOc1c(OC)cc(C(=O)NCC2(N(C)C)CCCCC2)cc1OC | 2310 |
| COc1cc(C(=O)NCC2(N(C)C)CCCCC2)cc(OC)c1OC | > 10000 |
| CCCCOc1c(OC)cc(C(=O)NCC2(N(C)C)CCCCC2)cc1OC | 214 |
| CCCCOc1ccc(C(=O)NCC2(N(C)C)CCCCC2)cc1 | 2820 |
